The values below come from patent US5571521A, “Composition containing silver ammonium phenytoin complex and a phenytoin and use of said composition” (priority 1995, dated 1996).

The nature of this data set: Solubility.

Turning to “Silver Ammonium Diphenyl Hydantoin [Silver ammonium phenytoin]”, the “solubility in aqueous media” value (aqueous media) was “poor solubility”. Moreover, for the setting “reaction solution (precipitation)”, the solubility entry was “very insoluble”.
